{"source": "BindingDB's records for doi:10.1021/jm960486n", "about": "(Eli Lilly, 1997)", "key": {"[1]": {"assay": "Compound was tested for the inhibitory activity against human pancreatic PLA2"}, "[2]": {"target": "Phospholipase A2 group IB, pancreatic (Homo sapiens) (UniProt P04054)", "assay": "Inhibitory activity against human pancreatic Phospholipase A2"}}}
{"smiles": "Cc1c(CC(N)=O)c2c(OCCCC(=O)O)cccc2n1Cc1ccccc1", "note": "[4-(1-Benzyl-3-carbamoylmethyl-2-methyl-1H-indol-4-yloxy)-butyric acid]", "values": [{"measurement": "IC50", "setting": "[1]", "result": 3.66, "unit": "µM"}, {"measurement": "IC50", "setting": "[2]", "result": 3.66, "unit": "µM"}]}
